Test results reported in ChEMBL document CHEMBL5537184, “Discovery, Optimization, and Evaluation of Novel Pyridin-2(1H)-one Analogues as Potent TRK Inhibitors for Cancer Treatment” (J Med Chem, 2024).

By UniProt entry, the sequences of proteins in these tests, tags left out. Where a name states a change or a piece, a line headed by the entry shows the natural chain unless it says otherwise.
UniProt P15056, whole entry: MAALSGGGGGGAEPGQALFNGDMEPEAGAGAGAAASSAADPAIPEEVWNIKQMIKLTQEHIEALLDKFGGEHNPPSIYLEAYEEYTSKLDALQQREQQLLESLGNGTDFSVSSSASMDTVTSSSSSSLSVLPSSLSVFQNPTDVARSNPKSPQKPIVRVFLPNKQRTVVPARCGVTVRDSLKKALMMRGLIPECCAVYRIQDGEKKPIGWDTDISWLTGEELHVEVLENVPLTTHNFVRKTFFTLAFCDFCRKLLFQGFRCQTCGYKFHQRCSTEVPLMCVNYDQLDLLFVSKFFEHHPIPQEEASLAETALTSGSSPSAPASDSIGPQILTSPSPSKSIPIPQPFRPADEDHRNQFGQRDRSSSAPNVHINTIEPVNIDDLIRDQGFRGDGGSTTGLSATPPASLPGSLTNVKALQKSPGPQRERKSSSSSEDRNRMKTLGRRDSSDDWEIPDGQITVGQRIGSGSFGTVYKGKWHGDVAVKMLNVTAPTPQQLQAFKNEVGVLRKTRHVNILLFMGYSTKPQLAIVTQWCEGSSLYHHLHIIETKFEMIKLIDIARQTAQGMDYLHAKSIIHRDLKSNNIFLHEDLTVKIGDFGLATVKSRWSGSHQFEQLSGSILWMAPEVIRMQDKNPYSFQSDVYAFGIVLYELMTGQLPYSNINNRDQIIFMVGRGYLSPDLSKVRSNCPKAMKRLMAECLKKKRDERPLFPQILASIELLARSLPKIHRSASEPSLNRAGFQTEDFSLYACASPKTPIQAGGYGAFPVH
UniProt O96017, whole entry: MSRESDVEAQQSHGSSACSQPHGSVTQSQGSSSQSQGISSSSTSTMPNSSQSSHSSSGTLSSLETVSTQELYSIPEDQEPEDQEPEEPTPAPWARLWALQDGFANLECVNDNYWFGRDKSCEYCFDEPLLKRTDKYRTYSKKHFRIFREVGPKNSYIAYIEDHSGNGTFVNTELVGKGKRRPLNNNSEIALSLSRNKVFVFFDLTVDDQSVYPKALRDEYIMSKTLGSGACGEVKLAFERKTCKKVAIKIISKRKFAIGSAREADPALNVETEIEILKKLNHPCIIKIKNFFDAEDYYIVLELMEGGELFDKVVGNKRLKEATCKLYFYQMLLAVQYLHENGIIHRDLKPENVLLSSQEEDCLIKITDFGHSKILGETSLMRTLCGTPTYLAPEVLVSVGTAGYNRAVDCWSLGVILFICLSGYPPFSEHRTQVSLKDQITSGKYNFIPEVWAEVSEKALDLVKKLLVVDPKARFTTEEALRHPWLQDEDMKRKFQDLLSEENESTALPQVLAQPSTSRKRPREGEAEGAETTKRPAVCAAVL
UniProt P11362, whole entry, looked up: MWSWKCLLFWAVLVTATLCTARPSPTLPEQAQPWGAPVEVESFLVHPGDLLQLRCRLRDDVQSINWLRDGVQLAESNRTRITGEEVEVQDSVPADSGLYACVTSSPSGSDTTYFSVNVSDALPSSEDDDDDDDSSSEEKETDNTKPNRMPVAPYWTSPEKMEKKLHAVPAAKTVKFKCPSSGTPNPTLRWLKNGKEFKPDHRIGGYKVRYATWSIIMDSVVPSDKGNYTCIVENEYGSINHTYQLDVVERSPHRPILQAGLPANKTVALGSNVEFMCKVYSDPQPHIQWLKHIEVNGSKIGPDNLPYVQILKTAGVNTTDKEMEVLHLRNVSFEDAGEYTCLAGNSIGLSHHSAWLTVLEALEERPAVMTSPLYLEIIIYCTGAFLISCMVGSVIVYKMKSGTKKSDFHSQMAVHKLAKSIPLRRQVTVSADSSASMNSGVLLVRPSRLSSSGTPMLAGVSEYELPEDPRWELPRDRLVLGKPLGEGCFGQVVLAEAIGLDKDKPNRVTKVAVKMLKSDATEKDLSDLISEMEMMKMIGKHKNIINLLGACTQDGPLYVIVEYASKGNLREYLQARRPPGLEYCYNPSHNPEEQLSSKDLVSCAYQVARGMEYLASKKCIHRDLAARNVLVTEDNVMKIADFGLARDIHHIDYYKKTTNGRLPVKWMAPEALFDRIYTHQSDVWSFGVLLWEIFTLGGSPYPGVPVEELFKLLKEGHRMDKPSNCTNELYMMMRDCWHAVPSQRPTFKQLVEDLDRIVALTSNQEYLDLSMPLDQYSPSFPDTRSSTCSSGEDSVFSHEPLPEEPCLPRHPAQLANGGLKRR
UniProt Q96PY6: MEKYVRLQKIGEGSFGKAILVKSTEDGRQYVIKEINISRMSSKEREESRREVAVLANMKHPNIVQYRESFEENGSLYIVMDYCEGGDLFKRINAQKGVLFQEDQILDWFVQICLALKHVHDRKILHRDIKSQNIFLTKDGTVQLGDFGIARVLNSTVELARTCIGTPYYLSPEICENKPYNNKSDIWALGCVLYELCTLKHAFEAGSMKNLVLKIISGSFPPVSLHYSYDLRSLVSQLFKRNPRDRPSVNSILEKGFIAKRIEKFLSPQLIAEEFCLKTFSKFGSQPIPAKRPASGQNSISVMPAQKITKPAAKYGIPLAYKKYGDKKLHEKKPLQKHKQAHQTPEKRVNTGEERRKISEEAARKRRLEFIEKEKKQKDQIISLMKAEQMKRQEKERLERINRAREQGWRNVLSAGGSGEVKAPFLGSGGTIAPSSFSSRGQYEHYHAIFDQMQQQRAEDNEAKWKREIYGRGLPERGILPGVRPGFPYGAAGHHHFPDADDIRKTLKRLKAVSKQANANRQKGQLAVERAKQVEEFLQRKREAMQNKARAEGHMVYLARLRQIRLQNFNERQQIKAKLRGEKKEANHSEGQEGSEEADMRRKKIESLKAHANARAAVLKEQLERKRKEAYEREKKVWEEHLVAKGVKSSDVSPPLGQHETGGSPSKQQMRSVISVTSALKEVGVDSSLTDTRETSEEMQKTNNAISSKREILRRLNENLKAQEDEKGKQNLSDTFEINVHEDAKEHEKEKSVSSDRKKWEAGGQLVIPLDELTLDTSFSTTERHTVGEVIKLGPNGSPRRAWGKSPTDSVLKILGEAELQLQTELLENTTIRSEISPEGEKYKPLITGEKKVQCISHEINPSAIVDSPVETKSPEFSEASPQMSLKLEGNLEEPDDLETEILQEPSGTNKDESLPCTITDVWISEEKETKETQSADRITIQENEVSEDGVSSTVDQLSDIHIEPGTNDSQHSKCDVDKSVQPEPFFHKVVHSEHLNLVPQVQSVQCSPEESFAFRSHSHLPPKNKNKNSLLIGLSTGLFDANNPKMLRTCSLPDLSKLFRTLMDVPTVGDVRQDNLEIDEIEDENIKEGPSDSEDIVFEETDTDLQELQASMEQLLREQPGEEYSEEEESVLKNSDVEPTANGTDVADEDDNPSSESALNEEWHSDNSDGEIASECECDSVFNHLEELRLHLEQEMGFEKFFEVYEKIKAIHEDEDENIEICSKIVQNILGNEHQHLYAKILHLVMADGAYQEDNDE
UniProt P07949, whole entry: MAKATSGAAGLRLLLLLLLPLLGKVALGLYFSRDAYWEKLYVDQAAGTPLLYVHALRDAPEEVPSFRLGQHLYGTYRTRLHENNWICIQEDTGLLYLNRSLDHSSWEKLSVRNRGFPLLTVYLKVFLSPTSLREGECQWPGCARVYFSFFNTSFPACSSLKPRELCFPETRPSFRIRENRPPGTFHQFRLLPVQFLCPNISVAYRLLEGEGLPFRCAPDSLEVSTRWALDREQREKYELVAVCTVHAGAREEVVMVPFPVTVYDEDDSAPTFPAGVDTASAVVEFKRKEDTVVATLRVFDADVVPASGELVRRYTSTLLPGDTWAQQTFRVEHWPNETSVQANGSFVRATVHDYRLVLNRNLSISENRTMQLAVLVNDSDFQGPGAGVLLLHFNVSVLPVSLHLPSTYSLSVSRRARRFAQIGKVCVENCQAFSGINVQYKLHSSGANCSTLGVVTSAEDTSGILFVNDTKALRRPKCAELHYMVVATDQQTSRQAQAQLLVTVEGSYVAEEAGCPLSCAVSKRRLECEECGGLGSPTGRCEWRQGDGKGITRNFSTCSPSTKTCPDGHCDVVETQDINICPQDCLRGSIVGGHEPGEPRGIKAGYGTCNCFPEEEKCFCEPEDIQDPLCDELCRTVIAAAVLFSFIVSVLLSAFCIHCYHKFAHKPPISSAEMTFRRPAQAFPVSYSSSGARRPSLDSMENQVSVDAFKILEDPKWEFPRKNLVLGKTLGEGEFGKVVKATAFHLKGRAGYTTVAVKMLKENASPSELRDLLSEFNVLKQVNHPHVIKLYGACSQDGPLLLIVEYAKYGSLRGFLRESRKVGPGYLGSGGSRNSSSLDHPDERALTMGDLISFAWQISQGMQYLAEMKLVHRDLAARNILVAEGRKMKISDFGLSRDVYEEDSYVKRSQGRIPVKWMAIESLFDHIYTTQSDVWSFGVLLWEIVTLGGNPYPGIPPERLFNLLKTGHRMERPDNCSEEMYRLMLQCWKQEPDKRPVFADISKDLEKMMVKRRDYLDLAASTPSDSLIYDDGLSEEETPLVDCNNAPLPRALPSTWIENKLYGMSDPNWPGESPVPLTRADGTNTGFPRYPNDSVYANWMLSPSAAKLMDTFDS
UniProt O00506, whole entry, looked up: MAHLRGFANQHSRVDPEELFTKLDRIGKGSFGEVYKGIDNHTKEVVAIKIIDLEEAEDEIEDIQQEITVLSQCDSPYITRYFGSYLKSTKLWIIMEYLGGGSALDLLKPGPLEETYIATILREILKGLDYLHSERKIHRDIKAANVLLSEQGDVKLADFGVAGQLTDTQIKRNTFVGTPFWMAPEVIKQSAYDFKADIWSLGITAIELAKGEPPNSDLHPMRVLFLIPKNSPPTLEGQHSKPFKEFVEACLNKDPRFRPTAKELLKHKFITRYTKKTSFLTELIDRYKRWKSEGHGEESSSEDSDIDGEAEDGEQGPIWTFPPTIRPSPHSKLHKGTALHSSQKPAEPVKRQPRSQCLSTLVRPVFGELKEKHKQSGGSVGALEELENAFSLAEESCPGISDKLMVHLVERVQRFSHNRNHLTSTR
UniProt Q9UHD2: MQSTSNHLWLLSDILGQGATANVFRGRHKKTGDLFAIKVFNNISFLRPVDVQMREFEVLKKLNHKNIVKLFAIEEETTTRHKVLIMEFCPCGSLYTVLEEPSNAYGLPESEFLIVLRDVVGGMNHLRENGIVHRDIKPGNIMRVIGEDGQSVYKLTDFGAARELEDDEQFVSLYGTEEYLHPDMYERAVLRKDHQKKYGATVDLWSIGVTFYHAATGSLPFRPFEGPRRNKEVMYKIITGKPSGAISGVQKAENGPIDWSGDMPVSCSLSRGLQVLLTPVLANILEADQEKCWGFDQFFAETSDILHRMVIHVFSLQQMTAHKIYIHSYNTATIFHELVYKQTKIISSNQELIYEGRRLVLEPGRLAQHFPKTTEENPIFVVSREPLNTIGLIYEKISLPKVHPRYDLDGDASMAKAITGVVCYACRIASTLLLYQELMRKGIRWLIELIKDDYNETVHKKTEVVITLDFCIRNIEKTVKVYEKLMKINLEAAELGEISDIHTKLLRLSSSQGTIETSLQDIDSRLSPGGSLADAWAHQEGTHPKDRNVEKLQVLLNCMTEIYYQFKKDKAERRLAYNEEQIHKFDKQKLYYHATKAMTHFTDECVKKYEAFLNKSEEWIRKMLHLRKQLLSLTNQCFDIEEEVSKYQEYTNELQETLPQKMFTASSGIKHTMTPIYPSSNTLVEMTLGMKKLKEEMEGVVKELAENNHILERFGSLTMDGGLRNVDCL
UniProt P30291: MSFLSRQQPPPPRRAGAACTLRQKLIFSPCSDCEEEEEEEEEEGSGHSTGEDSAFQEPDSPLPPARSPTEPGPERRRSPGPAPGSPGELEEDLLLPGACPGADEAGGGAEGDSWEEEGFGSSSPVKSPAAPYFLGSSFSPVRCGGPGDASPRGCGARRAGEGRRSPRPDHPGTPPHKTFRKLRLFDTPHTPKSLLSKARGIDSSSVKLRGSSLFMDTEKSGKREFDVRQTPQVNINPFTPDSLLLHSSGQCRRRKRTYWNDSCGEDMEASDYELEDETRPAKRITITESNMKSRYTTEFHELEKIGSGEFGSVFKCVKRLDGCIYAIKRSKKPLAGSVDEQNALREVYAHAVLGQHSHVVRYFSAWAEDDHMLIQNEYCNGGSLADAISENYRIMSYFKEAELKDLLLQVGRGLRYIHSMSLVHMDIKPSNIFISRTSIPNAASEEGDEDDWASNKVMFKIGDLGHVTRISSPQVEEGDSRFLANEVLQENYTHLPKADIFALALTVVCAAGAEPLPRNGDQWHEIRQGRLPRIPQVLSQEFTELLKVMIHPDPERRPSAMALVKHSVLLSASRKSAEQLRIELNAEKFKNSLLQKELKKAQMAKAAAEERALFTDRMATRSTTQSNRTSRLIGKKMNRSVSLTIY

Key:
[1] = system: Tyrosine-protein kinase ABL1 (Homo sapiens), P00519 [H396P]; test: Inhibition of human full length Abl (ABL1) H396P mutant expressed in 293H cells assessed as remaining activity at 0.1 uM by NanoBRET assay relative to control; type: cell-based; conditions: HEK293-H
[2] = biological target: ALK tyrosine kinase receptor (Homo sapiens) (UniProt Q9UM73); test: Inhibition of human recombinant ALK using KKKSPGEYVNIEF as substrate assessed as remaining activity in presence of [33P]-ATP measured at 0.1 uM after 40 mins by radiometric scintillation counting analysis relative to control
[3] = biological target: Aurora kinase A (Homo sapiens) (UniProt O14965); test: Inhibition of human Aurora-A assessed as remaining activity at 0.1 uM by Eurofins kinase assay relative to control
[4] = biological target: Serine/threonine-protein kinase B-raf (Homo sapiens) (UniProt P15056); test: Inhibition of human B-Raf assessed as remaining activity at 0.1 uM by Eurofins kinase assay relative to control
[5] = biological target: Cyclin-dependent kinase 1/cyclin B1 (Homo sapiens) (UniProt P06493+P14635); test: Inhibition of human CDK1/cyclinB assessed as remaining activity at 0.1 uM by Eurofins kinase assay relative to control; type: protein-complex assay
[6] = biological target: Serine/threonine-protein kinase Chk2 (Homo sapiens) (UniProt O96017); test: Inhibition of human CHK2 assessed as remaining activity at 0.1 uM by Eurofins kinase assay relative to control
[7] = biological target: Epidermal growth factor receptor (Homo sapiens) (UniProt P00533); test: Inhibition of human EGFR assessed as remaining activity at 0.1 uM by Eurofins kinase assay relative to control
[8] = biological target: Fibroblast growth factor receptor 1 (Homo sapiens) (UniProt P11362); test: Inhibition of human FGFR1 assessed as remaining activity at 0.1 uM by Eurofins kinase assay relative to control
[9] = biological target: Vascular endothelial growth factor receptor 1 (Homo sapiens) (UniProt P17948); test: Inhibition of human Flt1 assessed as remaining activity at 0.1 uM by Eurofins kinase assay relative to control
[10] = biological target: Glycogen synthase kinase-3 alpha (Homo sapiens) (UniProt P49840); test: Inhibition of human GSK3a assessed as remaining activity at 0.1 uM by Eurofins kinase assay relative to control
[11] = biological target: LIM domain kinase 1 (Homo sapiens) (UniProt P53667); test: Inhibition of human LIMK1 assessed as remaining activity at 0.1 uM by Eurofins kinase assay relative to control
[12] = biological target: Dual specificity mitogen-activated protein kinase kinase 1 (Homo sapiens) (UniProt Q02750); test: Inhibition of human MEK1 assessed as remaining activity at 0.1 uM by Eurofins kinase assay relative to control
[13] = biological target: Hepatocyte growth factor receptor (Homo sapiens) (UniProt P08581); test: Inhibition of human Met assessed as remaining activity at 0.1 uM by Eurofins kinase assay relative to control
[14] = biological target: Serine/threonine-protein kinase mTOR (Homo sapiens) (UniProt P42345); test: Inhibition of human mTOR assessed as remaining activity at 0.1 uM by Eurofins kinase assay relative to control
[15] = biological target: Serine/threonine-protein kinase Nek1 (Homo sapiens) (UniProt Q96PY6); test: Inhibition of human NEK1 assessed as remaining activity at 0.1 uM by Eurofins kinase assay relative to control
[16] = biological target: Serine/threonine-protein kinase pim-1 (Homo sapiens) (UniProt P11309); test: Inhibition of human Pim-1 assessed as remaining activity at 0.1 uM by Eurofins kinase assay relative to control
[17] = biological target: Serine/threonine-protein kinase PLK1 (Homo sapiens) (UniProt P53350); test: Inhibition of human Plk1 assessed as remaining activity at 0.1 uM by Eurofins kinase assay relative to control
[18] = biological target: Proto-oncogene tyrosine-protein kinase receptor Ret (Homo sapiens) (UniProt P07949); test: Inhibition of human Ret assessed as remaining activity at 0.1 uM by Eurofins kinase assay relative to control
[19] = biological target: Receptor-interacting serine/threonine-protein kinase 1 (Homo sapiens) (UniProt Q13546); test: Inhibition of human RIPK1 assessed as remaining activity at 0.1 uM by Eurofins kinase assay relative to control
[20] = biological target: Receptor-interacting serine/threonine-protein kinase 2 (Homo sapiens) (UniProt O43353); test: Inhibition of human RIPK2 assessed as remaining activity at 0.1 uM by Eurofins kinase assay relative to control
[21] = biological target: Macrophage-stimulating protein receptor (Homo sapiens) (UniProt Q04912); test: Inhibition of human Ron assessed as remaining activity at 0.1 uM by Eurofins kinase assay relative to control
[22] = biological target: Proto-oncogene tyrosine-protein kinase ROS (Homo sapiens) (UniProt P08922); test: Inhibition of human Ros assessed as remaining activity at 0.1 uM by Eurofins kinase assay relative to control
[23] = biological target: Proto-oncogene tyrosine-protein kinase Src (Homo sapiens) (UniProt P12931); test: Inhibition of human Src (1-530) assessed as remaining activity at 0.1 uM by Eurofins kinase assay relative to control
[24] = biological target: Serine/threonine-protein kinase 25 (Homo sapiens) (UniProt O00506); test: Inhibition of human STK25 assessed as remaining activity at 0.1 uM by Eurofins kinase assay relative to control
[25] = biological target: Tyrosine-protein kinase SYK (Homo sapiens) (UniProt P43405); test: Inhibition of human Syk assessed as remaining activity at 0.1 uM by Eurofins kinase assay relative to control
[26] = biological target: Serine/threonine-protein kinase TBK1 (Homo sapiens) (UniProt Q9UHD2); test: Inhibition of human TBK1 assessed as remaining activity at 0.1 uM by Eurofins kinase assay relative to control
[27] = biological target: Angiopoietin-1 receptor (Homo sapiens) (UniProt Q02763); test: Inhibition of human Tie2 assessed as remaining activity at 0.1 uM by Eurofins kinase assay relative to control
[28] = biological target: Non-receptor tyrosine-protein kinase TYK2 (Homo sapiens) (UniProt P29597); test: Inhibition of human TYK2 assessed as remaining activity at 0.1 uM by Eurofins kinase assay relative to control
[29] = biological target: Wee1-like protein kinase (Homo sapiens) (UniProt P30291); test: Inhibition of human Wee1 assessed as remaining activity at 0.1 uM by Eurofins kinase assay relative to control
[30] = biological target: Mitogen-activated protein kinase kinase kinase 20 (Homo sapiens) (UniProt Q9NYL2); test: Inhibition of human ZAK assessed as remaining activity at 0.1 uM by Eurofins kinase assay relative to control
[31] = system: Tyrosine-protein kinase ABL1 (Homo sapiens), P00519 [H396P]; test: Inhibition of human full length Abl (ABL1) H396P mutant expressed in 293H cells assessed as remaining activity at 1 uM by NanoBRET assay relative to control; type: cell-based; conditions: HEK293-H

## C[C@@H](Nc1c[nH]c(=O)c(C(=O)Nc2ccc(CN3CCN(C)CC3)cc2)c1)c1c(Cl)ccc(F)c1Cl
[1]
  Activity: 103%
[2]
  Activity: 84%
[3]
  Activity: 89%
[4]
  Activity: 93%
[5]
  Activity: 96%
[6]
  Activity: 105%
[7]
  Activity: 110%
[8]
  Activity: 122%
[9]
  Activity: 96%
[10]
  Activity: 109%
[11]
  Activity: 83%
[12]
  Activity: 91%
[13]
  Activity: 114%
[14]
  Activity: 85%
[15]
  Activity: 113%
[16]
  Activity: 107%
[17]
  Activity: 111%
[18]
  Activity: 95%
[19]
  Activity: 114%
[20]
  Activity: 97%
[21]
  Activity: 100%
[22]
  Activity: 107%
[23]
  Activity: 79%
[24]
  Activity: 103%
[25]
  Activity: 114%
[26]
  Activity: 92%
[27]
  Activity: 120%
[28]
  Activity: 102%
[29]
  Activity: 96%
[30]
  Activity: 96%
[31]
  Activity: 92%
